This experiment has as its target Vasopressin V2 receptor (Rattus norvegicus, UniProt Q00788).

Amino acid sequences for entries named in this document (tags omitted).
UniProt Q00788, whole entry: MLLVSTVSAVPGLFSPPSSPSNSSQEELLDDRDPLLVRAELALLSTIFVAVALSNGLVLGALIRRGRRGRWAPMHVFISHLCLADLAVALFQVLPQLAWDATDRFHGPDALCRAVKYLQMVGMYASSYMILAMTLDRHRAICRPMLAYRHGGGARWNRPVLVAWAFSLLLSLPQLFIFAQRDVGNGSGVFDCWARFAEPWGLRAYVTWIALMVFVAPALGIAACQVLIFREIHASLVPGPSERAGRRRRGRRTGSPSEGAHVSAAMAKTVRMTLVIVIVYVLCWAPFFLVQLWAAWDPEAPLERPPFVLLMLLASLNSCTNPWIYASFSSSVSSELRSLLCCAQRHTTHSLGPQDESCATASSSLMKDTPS

This note sets out measurements from BindingDB's records for PubMed 9223568 (Yamanouchi Pharmaceutical, 1997).

Values joined by “and” are separate entries in the source; they are usually repeats but may differ in a detail not shown here. Identical values can stand only once.

Consider `NC(=O)CC[C@@H]1NC(=O)[C@H](Cc2ccccc2)NC(=O)[C@H](Cc2ccc(O)cc2)NC(=O)[C@@H](N)CSSC[C@@H](C(=O)N2CCC[C@H]2C(=O)N[C@@H](CCCN=C(N)N)C(=O)NCC(N)=O)NC(=O)[C@H](CC(N)=O)NC1=O` [[3H]Argipressin tannate], for which the Ki was 3.23 nM and 0.46 nM.
